The source of these data is article PMC12794186, “Covalent Alkynylpyridopyrimidinones Targeting Cysteine 775 of the Epidermal Growth Factor Receptor Overcome Resistance to Current Therapies” (Journal of Medicinal Chemistry, 2025).

Protein sequences, listed by entry. Tags and fused reporters are not part of them. Lines headed by an entry give the natural chain unless they say otherwise; changes in a name come on top. Residues count along the entry.
UniProt P00533, 696-1022 limits assumed: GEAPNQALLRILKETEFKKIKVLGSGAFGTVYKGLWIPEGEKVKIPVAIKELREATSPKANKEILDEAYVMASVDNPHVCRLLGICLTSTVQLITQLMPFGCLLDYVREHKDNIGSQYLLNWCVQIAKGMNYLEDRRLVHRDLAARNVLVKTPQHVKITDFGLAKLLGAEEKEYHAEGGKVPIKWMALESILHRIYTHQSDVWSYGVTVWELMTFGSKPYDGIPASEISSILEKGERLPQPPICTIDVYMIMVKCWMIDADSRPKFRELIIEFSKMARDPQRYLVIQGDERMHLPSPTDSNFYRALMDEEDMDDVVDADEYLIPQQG
UniProt P00533, 712-979 T790M/C797S/L858R limits assumed: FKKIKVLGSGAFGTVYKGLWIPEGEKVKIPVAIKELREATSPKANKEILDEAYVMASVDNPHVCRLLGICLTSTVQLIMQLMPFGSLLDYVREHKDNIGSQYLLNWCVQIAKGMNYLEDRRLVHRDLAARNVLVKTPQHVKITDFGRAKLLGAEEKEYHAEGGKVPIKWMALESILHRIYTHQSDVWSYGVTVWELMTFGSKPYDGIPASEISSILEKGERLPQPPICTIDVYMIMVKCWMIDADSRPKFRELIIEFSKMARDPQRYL

Structures are written as SMILES. pIC50: −log10 of the molar value.

The pIC50 is the negative decadic logarithm of the IC50, by convention in mol/L.

Test [1] deals with recombinant triply mutated EGFR L858R, T790M, C797S kinase domain (mLTC-EGFR) (Homo sapiens, UniProt P00533, C797S/L858R/T790M). Put plainly: TR-FRET fluorescent probe displacement assay. The format is binding. In general terms: TR-FRET usually uses a lanthanide donor and a delayed reading to cut background.
In a further test the target is wild-type EGFR (WT-EGFR) (Homo sapiens, UniProt P00533). Put plainly: TR-FRET fluorescent probe displacement assay. Format: binding.

For `CN(C)CCN(C)c1ccc(Nc2ncc3ccc(=O)n(-c4ccccc4)c3n2)cc1`, the “mLTC-EGFR pIC50 ± std dev” value in test [1] (n > 3) was 6.2 ± 0.14. For the same compound, the figures for the pIC50 (in test [1] (read-out: mLTC-EGFR IC50); at wild-type EGFR (WT-EGFR) (read-out: WT-EGFR IC50)) were 6.20 and 5.14, respectively. Besides, the “WT-EGFR pIC50 ± std dev” value on wild-type EGFR (WT-EGFR) (n > 3) came out at 5.1 ± 0.40.
